Assay results taken from ChEMBL document CHEMBL3734659, “Identification of tris-(phenylalkyl)amines as new selective h5-HT2Breceptor antagonists” (Medchemcomm, 2015).

Tested on: HEK293
Experiment: Selectivity ratio of Ki for human recombinant 5-HT2A receptor expressed in HEKT cell membrane to Ki for human recombinant 5-HT2B receptor stably expressed in HEK cells
Type: cell-based

## COc1ccc(CCN(CCCc2cc(OC)c(OC)c(OC)c2)Cc2ccc3c(c2)OCO3)cc1OC
  Ratio Ki: 10
